Data on one substance can be found in patent US20070020718A1.

Chains of the proteins cited; added tags and fusions are not shown. Residues count along the entry.
UniProt P40337, 54-213, chain 1 of 3: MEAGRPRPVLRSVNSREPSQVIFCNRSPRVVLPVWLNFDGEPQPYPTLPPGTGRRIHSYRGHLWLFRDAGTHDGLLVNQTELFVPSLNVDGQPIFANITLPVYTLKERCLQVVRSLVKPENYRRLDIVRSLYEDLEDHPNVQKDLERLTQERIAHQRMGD

The target in the experiment is GST-VBC protein (VHL-Elongin B-Elongin C complex) (human) (UniProt P40337).

The substance F-P564 peptide returned a fluorescence polarization value of 0.066.
